## Binding of CDR-mutated scFvs to a peptide of the spike HR2 region

From the AlphaSeq antibody data of Li et al. 2023 (doi:10.1038/s41467-023-39022-2), copy in the FLAb collection.

All variants were tested on one target, the spike HR2 peptide PDVDLGDISGINAS (SARS-CoV-2).

Parent: Ab-14, a human scFv built as VH, a (GGGGS)3 linker, VL. Only the CDRs of the heavy chain vary.
VH: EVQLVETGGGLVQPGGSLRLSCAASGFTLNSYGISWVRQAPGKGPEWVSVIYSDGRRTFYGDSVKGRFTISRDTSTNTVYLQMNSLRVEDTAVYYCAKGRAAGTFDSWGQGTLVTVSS
VL: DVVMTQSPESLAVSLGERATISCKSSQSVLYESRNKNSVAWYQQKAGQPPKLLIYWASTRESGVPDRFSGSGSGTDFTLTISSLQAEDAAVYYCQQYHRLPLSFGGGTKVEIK

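The starting antibody came from a phage panning campaign against this peptide. The variants were designed computationally from a first round of random CDR variants and then made and measured. Group labels follow the data file (Ctrl: baseline library sampled from a position-specific scoring matrix, with some repeated check sequences; Rand: our label for a block that the file lists under HC and that is probably the random mutants of the ten best first-round binders; GP: Gaussian process model; GPLM: also part of the Gaussian process libraries; HC: hill climbing; Gen: genetic algorithm; Gibbs: Gibbs sampling; a sequence that several methods proposed may carry one label only). The assay is AlphaSeq: two haploid yeast populations carry antibody and antigen on their surface. Pairs that bind mate more often; barcode pairs of the diploids are counted by sequencing. A regression on co-assayed BCL2-family reference pairs converts the normalised counts of each replicate to an apparent Kd. There are six technical replicates.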

The parent's heavy chain CDRs are GFTLNSYGIS, VIYSDGRRTFYGDSVK, GRAAGTFDS; each variant's own CDRs replace them letter for letter. Variants here have at most six changes. The Kd shown is the geometric mean over detected replicates; a lower Kd is a better binder. "nd" marks a missing value. The strain was present, yet no cells mated with the target were sequenced in any replicate, which points to weak or no binding. Of ten entries with the parent sequence, four were seen in most replicates (averages 2.2 nM to 240 nM), three in one and three in none, so single entries are noisy.

With RFTLNSYGIS | VIYSDGRRTFYGDFVK | GRLAGTFDS [Ctrl] the result was nd (0 of 6 replicates).
With GFTLNSYGIS | VIYSDGRRMFYSDSVK | GREAGTFDS [Ctrl] the result was 1.2 nM (6 of 6 replicates).
With GFTLNSYGIS | VIYSDGRRTFYEDSVK | GRAAGTFDS [Ctrl] the result was 16 nM (2 of 6 replicates).
With GDTLSSYGIS | VIYSDGRRTFYGDSVK | GRAAGTFDS [Ctrl] the result was 160 nM (3 of 6 replicates).
With GFTLNEYGIS | VIYSDGRRTFYGDAVK | GQAAGTFDK [GPLM_Gen] the result was 6.5 nM (4 of 6 replicates).
With GFTLNQYGIS | VIYSDGRVTFYSDSVK | GWAAGFFDS [Rand] the result was nd (0 of 6 replicates).
With GFSLNSYGIS | VIYSDGRRTFYDDSVK | GKAAGTFDS [GPLM_Gen] the result was 1.4 nM (6 of 6 replicates).
With GFHLNSYGIS | VIYSDGRRTFYQDSVK | GREAGTFDA [GP_Gibbs] the result was 1.3 nM (6 of 6 replicates).
With GFTLNMYGIS | VIYSDGRRTFYGDSVK | GRAAGTAHS [Ctrl] the result was nd (0 of 6 replicates).
With KFNLNSYGIS | VIYSDGRRTFYADSVK | GRTAGTFDS [GPLM_Gen] the result was 8.2 nM (5 of 6 replicates).
With GFTLNSYGIS | VIYSDGRRTFYSDSVK | GRAKGTFDS [Rand] the result was 2.3 µM (1 of 6 replicates).
With GFTLNKYGIS | VIYADGRRTFYSDSVK | GRAAGTFCS [Ctrl] the result was 300 nM (2 of 6 replicates).
With GFHLNSYGIS | VIYSDGRRTFYDDSVK | GTLAGTFDS [GP_HC] the result was 4.1 nM (6 of 6 replicates).
With GNTLSSYGIS | VIYSDGRRTFYGDSVK | GREPGPFDS [Ctrl] the result was nd (0 of 6 replicates).
With GFTLNSYGIS | VIESDGRRTFYGDSVK | IRQAGTFDS [Ctrl] the result was nd (0 of 6 replicates).
With GFTLNSYGIS | VIYSDGRRTFYGDSVK | GRIAGTFES [Ctrl] the result was 83 nM (6 of 6 replicates).
With GFGLNEYGIS | VIYSDGRRTFYHDSVK | GRVAGTFDS [GP_Gen] the result was 1.7 nM (6 of 6 replicates).
With GFSINEYGIS | VIYSDGLRTFYSDSVK | GRAAGTFDS [Ctrl] the result was 3.1 nM (6 of 6 replicates).
With GFTLNVYGIS | VIYSDGRRTFYGDSVK | GDAAGTFDS [Ctrl] the result was 32 nM (4 of 6 replicates).
With GFTLNEYGIS | VIYSAGRRFFYGDSVK | GRAAVTFDQ [Rand] the result was nd (0 of 6 replicates).
With GFDLNSYGIS | VIYSDGRRTFYSDSVK | GREAGTFDT [GPLM_Gibbs] the result was 490 pM (6 of 6 replicates).
With GFSLNSYGIS | VIYSDGRRTFYADSVK | GNAAGTFDK [GPLM_Gen] the result was 980 pM (6 of 6 replicates).
With GRTLNSYGIS | VIYLDGRRTFYGDSVK | GRAAGTFDS [Ctrl] the result was nd (0 of 6 replicates).
With GFQLNSYGIS | VIYSDGRRTFYSDSVK | IRAAGTPDS [Ctrl] the result was nd (0 of 6 replicates).
With GFTLNDYGIS | VIYSDGRRTQTIKSVK | GRAAGTFDS [Rand] the result was 53 nM (1 of 6 replicates).
With GFDLNSYGIS | VIYSDGRRTFYGDKVK | GQAAGTFDS [GP_Gibbs] the result was 2.8 nM (6 of 6 replicates).
With GFTLNQYGIS | VIYSDGRRTFYADSVK | GRLAGTFDT [GP_HC] the result was 1.1 nM (6 of 6 replicates).
With GFGLNEYGIS | VIYSDGRRTFYHDSVK | GRAAGTFDN [GP_Gibbs] the result was 3.4 nM (6 of 6 replicates).
With CFTLNSYGIS | VIYSDGRRTFYADSVK | GQLAGTFDS [GP_HC] the result was 2.2 nM (6 of 6 replicates).
With GFTLNSYGIS | VIYSDGRRTFYSDSVK | GRAGGTSCS [Rand] the result was nd (0 of 6 replicates).
With GFTLNSYGIS | VIYSDGRRTFYGDSVK | GSEAGTFDS [Ctrl] the result was 3.0 nM (6 of 6 replicates).
With GFPLNSYGIS | VIYSDGRRTFYGDSVK | GTAAGTKDS [Ctrl] the result was nd (0 of 6 replicates).

From the list, the first 5 with no signal in any replicate:

CDR-H1	CDR-H2	CDR-H3	group	Kd	replicates with signal
RFTLNSYGIS	VIYSDGRRTFYGDFVK	GRLAGTFDS	Ctrl	nd	0 of 6
GFTLNQYGIS	VIYSDGRVTFYSDSVK	GWAAGFFDS	Rand	nd	0 of 6
GFTLNMYGIS	VIYSDGRRTFYGDSVK	GRAAGTAHS	Ctrl	nd	0 of 6
GNTLSSYGIS	VIYSDGRRTFYGDSVK	GREPGPFDS	Ctrl	nd	0 of 6
GFTLNSYGIS	VIESDGRRTFYGDSVK	IRQAGTFDS	Ctrl	nd	0 of 6

The range of this assay differs from that of the first round, and the authors advise against merging the two. The authors averaged sequences with at least three values out of six and counted those with two or fewer as poor binders. Three control strains display no target. For all heavy chain designs, 1% of the pairings with them gave a signal, with a median of 120 nM and one signal in twenty below 7.0 nM, so weak values seen in few replicates may be background.